# Values of other authors as cited in article PMC2696799 (European journal of immunology, 2009).
# Target: CD80 ECD (Homo sapiens) (UniProt P33681)
# Settings: cited from earlier work
substance,measurement,value
CTLA4 ECD (from UniProt P16410),Kd,2000 nM
